{"source": "patent US20220033448A1", "about": "“METHODS FOR AGGREGATION OF PROTEINS” (priority 2011, published 2022)", "system": "S. aureus MRSA 326", "assay": "Neutropenic-mouse thigh model", "settings": "neutropenic mice; two i.p. injections of 30 mg/kg; sacrificed 6 hours post-infection", "note": "No end group written: not given here.", "data": [{"sequence": "RILLGLIRRGSRILLGLIRR [C30]", "values": [{"measurement": "CFU reduction in thigh", "value": "no rapid effect on CFU reduction in thigh"}]}]}
